Shown are actives, neighbours in structure and some others; about 2.3% of the full set was active somewhere.
A549 viability – counter-screen for Nrf2 inhibitors: cytotoxicity in A549 cells; AID 504648; 390,000 tested, 0.16% active; Potency, µM (titrated, usually from 46 µM), for the others: at the top dose activity change, negative = cytotoxicity, hits mostly inhibitors; A549 ARE-Fluc cells, CellTiter-Fluor viability, 18-24 h; further: potency means the concentration at half of the fitted maximal effect; on the % scale 0 is the no-effect control and ±100 the full control effect
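A549 ARE_Fluc cells in 5% FBS OPTI-MEM were exposed to compounds in concentration-response for 18-24 h at 37 deg C. Viability was read by CellTiter-Fluor fluorescence (Ex 405/Em 525) after 30 min, before the luciferase read.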
Nrf2 block – Nrf2 pathway inhibition; AID 504444; 360,000 tested, 2.1% active; Potency, µM (doses to about 46 µM), inactives show top-dose activity change, negative = inhibition, actives largely listed as inhibitors; A549 ARE-Fluc reporter, luciferase luminescence, 18-24 h; further: potency means the concentration at half of the fitted maximal effect; on the % scale 0 is the no-effect control and ±100 the full control effect; nearly all actives have a fitted effect of over 60% in size
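Two sequential reads on A549 ARE_Fluc cells exposed to compound for 18-24 h: a CellTiter-Fluor fluorescence read for viability, then a luciferase luminescence read for Nrf2/ARE activity.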
miR-21 reporter – miR-21 reporter, rising signal. 340,000 tested, under 10 active. Potency, µM (highest dose often 38.3 µM), for the others: at the highest dose reporter change, positive = more light. HeLa miR-21 FLuc reporter, luciferase, 48 h. AID 2288; active = well fitted rising curve with a large enough effect; inconclusive = small, poorly fitted or top-dose-only effect; inactive = no such curve, though single readings can be large or run the other way;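 further: % of control where 0% means no effect; miR-21 action dims this reporter so a rising signal means less miR-21 action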
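HeLa miR-21-FLuc reporter line, endogenous miR-21; 2000 cells/well in DMEM/10% FBS; compound titration up to ~40uM final, 48 h, 37 degree Celsius; luciferase detection reagent, 15 min lysis, CCD luminescence.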
Mito fusion yeast – mitochondrial division inhibition or fusion activation; S. cerevisiae fusion-defective mutant growth rescue, CellTiterGlo 48 h; Potency, µM (series often up to 46.1 µM), without a hit: at the highest dose growth rescue (activation), hits mostly activators; 320,000 tested, 0.23% active; AID 485298; further: potency means the concentration at half of the fitted maximal effect; % of control where 0% means no effect; nearly all actives have a fitted effect of over 45% in size
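Yeast fusion mutant, YPEG (non-fermentable carbon), compound, 48 h at 37C non-permissive; CellTiterGlo added, 10 min RT, luminescence read. Rescued growth = division inhibition.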
Nrf2 activator – Nrf2 pathway activation. AREc32 ARE-luciferase reporter (MCF7-derived line), luminescence, 24 h. 410,000 tested, 0.31% active. Potency, µM (titrated, usually from 46.1 µM), for the others: top-dose activation, actives largely listed as activators; further: potency means the concentration at half of the fitted maximal effect; % of control where 0% means no effect; nearly all actives have a fitted effect of over 65% in size
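AREc32_Fluc, 1000 cells/well, OPTI-MEM + 5% FBS, o/n 37 deg C 5% CO2; 23 nL cpd by pin tool, 24 hr; Steady-Glo 30 min RT, luminescence.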
An asterisk follows results filed as active; ? = inconclusive; / = no result; ! = repeats disagree; [ ] = another dose, or the depositor's remark. Unless noted, the call rests on the fitted dose curve; in most records, active means well fitted curve in the direction sought with a large enough effect; inconclusive means small, poorly fitted or top-dose-only effect, or another doubt; inactive means no such curve, though single readings can be large; an effect the other way counts as inactive or inconclusive.

1. CNC(=O)c1cc(Oc2ccc(NC(=O)Nc3ccc(Cl)c(C(F)(F)F)c3)cc2)ccn1
2. Cc1c(Cl)sn(-c2ccc(Cl)cc2)c1=O
3. O=C1/C(=C/c2ccccn2)COc2ccccc21
4. CC1C/C(=C/c2ccccn2)C(=O)/C(=C/c2ccccn2)C1 (stereo unspecified)
5. CC(C)(C)C1C/C(=C/c2ccccn2)C(=O)/C(=C/c2ccccn2)C1 (stereo unspecified)
6. COc1ccc(-c2noc(C3CCCN(C(=O)c4ccccc4)C3)n2)cc1 (stereo unspecified)
7. O=C(c1ccco1)N1CCCC(c2nc(-c3ccc(S(=O)(=O)NCc4ccccc4)cc3)no2)C1 (stereo unspecified)
8. Cc1ccc(C(=O)Nc2ccccc2N2CCCCC2)cc1[N+](=O)[O-]

assay / entry,1,2,3,4,5,6,7,8
A549 viability,?,?,3%,?,5.8µM*,0%,-11%[1.84 µM],0%
Nrf2 block,26µM*,26µM*,37%,16µM*,5.8µM*,?,10µM*,12µM*
miR-21 reporter,/,?,3%,?,?,-10%,24%,-1%
Mito fusion yeast,-18%,1%,10%,4%,0%,6%,24%,0%
Nrf2 activator,-2%,0%,19%,-1%,?,1%,-1%,4%

9. Cc1cccc(N2CCN(CC(=O)Nc3ccccc3[N+](=O)[O-])CC2)c1C
10. Cc1ccc(C(=O)NC(=S)Nc2ccccc2N2CCCC2)cc1[N+](=O)[O-]
11. CN(C)S(=O)(=O)c1cc(NC(=O)c2ccc(-n3ccnc3)c([N+](=O)[O-])c2)ccc1Cl
12. CC(=O)N1CCN(c2ccc(NC(=O)c3ccc(N4CCCC4)c([N+](=O)[O-])c3)cc2Cl)CC1
13. CCCC(=O)N1CCN(c2ccc(NC(=O)c3ccc(N4CCCC4)c([N+](=O)[O-])c3)cc2Cl)CC1
14. Cc1oc2ncnc(N3CCCCC3)c2c1C(=O)NCC1CCN(Cc2ccc(F)cc2)CC1
15. COc1ccccc1Nc1cc2ccccc2c(=O)[nH]1
16. COC(=O)c1cc2c(s1)c1cnn(Cc3ccccc3F)c(=O)c1n2C

assay / entry,9,10,11,12,13,14,15,16
A549 viability,-11%,6%,-6%,-14%,-6%,-8%,?,/
Nrf2 block,21µM*,-14%,18µM*,23µM*,-11%,15%,99%,/
miR-21 reporter,0%,-23%,25%,-9%,/,1%,/,/
Mito fusion yeast,9%,?,-3%,9%,/,/,/,1%
Nrf2 activator,0%,6%,3%,0%,-1%,-1%,/,/

17. O=[N+]([O-])c1ccc(C[n+]2ccccc2)cc1
18. O=[N+]([O-])c1ccc(C[n+]2ccc(Cc3ccccc3)cc2)cc1
19. CCCCn1c(CCl)nc2cc(S(=O)(=O)N3CCOCC3)ccc21
20. O=S(=O)(c1ccc2c(c1)nc(COc1ccc(Cl)cc1)n2CC1CCCO1)N1CCOCC1 (stereo unspecified)
21. N#Cc1c(-c2ccc(Cl)cc2)no[n+]1[O-]
22. COC(=O)CC1(C(=O)OC)Oc2ccc(Br)cc2C(=O)N1c1ccc(Br)cc1Cl (stereo unspecified)
23. COC(=O)CC1(C(=O)OC)Oc2ccc(Br)cc2C(=O)N1c1cc(Cl)c(Cl)cc1Cl (stereo unspecified)
24. CCCN(CC(=O)Nc1cc(Cl)ccc1Cl)C(=O)/C=C/c1ccco1

assay / entry,17,18,19,20,21,22,23,24
A549 viability,0%,1%,-8%,-19%,-4%,-24%,1%,1%
Nrf2 block,21µM*,?,-9%,10µM*,-8%,16µM*,?,-19%
miR-21 reporter,/,29%,/,6%,/,28%,20%,-20%
Mito fusion yeast,4%,1%,/,0%,/,-13%,-3%,21%
Nrf2 activator,0%,0%,9%,2%,/,0%,6%,11µM*

Given with each value named: two of the compounds above
[17] O=[N+]([O-])c1ccc(C[n+]2ccccc2)cc1
  A549 viability: 0%	Nrf2 block: 21µM*	miR-21 reporter: /	Mito fusion yeast: 4%	Nrf2 activator: 0%

[24] CCCN(CC(=O)Nc1cc(Cl)ccc1Cl)C(=O)/C=C/c1ccco1
  A549 viability: 1%	Nrf2 block: -19%	miR-21 reporter: -20%	Mito fusion yeast: 21%	Nrf2 activator: 11µM*

Other records.
25. Cn1c(=O)[nH]c2nnc(-c3ccc(Cl)c(Cl)c3)nc2c1=O
26. Cc1ccc2onc(CNC(=O)Nc3ccccc3C#N)c2c1
27. CC1(O)c2ccccc2C(=O)N1CCc1ccccc1F (stereo unspecified)
28. CC1(O)c2ccccc2C(=O)N1Cc1ccccc1 (stereo unspecified)
29. C/C(=N\NC(=O)c1ccc(CN(C)S(=O)(=O)c2ccc(C)cc2)cc1)c1ccc(OC(F)F)cc1
30. O=C(OCC#CCSc1nnc(-c2cccc3ncccc23)o1)c1ccc(F)cc1
31. CNc1oc(-c2ccccc2F)nc1S(=O)(=O)c1ccc(C)cc1
32. Cc1cccc(N2CCN(c3ncnc4c3nc3n4CCCCC3)CC2C)c1 (stereo unspecified)

assay / entry,25,26,27,28,29,30,31,32
A549 viability,-3%,-1%,4%,-8%,-18%,-3%,-11%,16µM*
Nrf2 block,?,14%,?,-20%,5.2µM*,-15%,26µM*,18µM*
miR-21 reporter,-38%,-4%,-27%,-4%,-1%,/,5%,?
Mito fusion yeast,2.5µM*,/,3%,-2%,-4%,/,0%,/
Nrf2 activator,2%,1%,7.1µM*,1%,0%,/,3%,-4%

Grouped by structure: the entries above with an aryl methoxy group
6. COc1ccc(-c2noc(C3CCCN(C(=O)c4ccccc4)C3)n2)cc1 (stereo unspecified)
15. COc1ccccc1Nc1cc2ccccc2c(=O)[nH]1

assay / entry,6,15
A549 viability,0%,?
Nrf2 block,?,99%
miR-21 reporter,-10%,/
Mito fusion yeast,6%,/
Nrf2 activator,1%,/

More entries follow:
33. O=C(C1CCN(c2ncnc3c2nc2n3CCCCC2)CC1)N1CCN(c2ccc(F)cc2)CC1
34. Fc1ccccc1N1CCN(c2ncnc3c2nc2n3CCCC2)CC1
35. O=C(C1CCCN(c2ncnc3c2nc2n3CCCCC2)C1)N1CCN(c2ccccc2F)CC1 (stereo unspecified)
36. COc1ccc(CN(C)CC(=O)Nc2cc3oc4ccccc4c3cc2OC)c(OC)c1
37. COc1cc2c(cc1NC(=O)CN(C)Cc1ccc(OC)c(OC)c1)oc1ccccc12
38. O=[S+]([O-])(c1ccc2nsnc2c1)N1CCN([S+](=O)([O-])c2c(F)cccc2F)CC1
39. Cc1ccc(-c2cc(-c3ccco3)c3c(N)c(C(=O)NN)oc3n2)cc1
40. Cc1oc2c(c1C(=O)NCc1cccnc1)C(=O)c1ccccc1C2=O

assay / entry,33,34,35,36,37,38,39,40
A549 viability,7%,-6%,0%,-1%,-12%,-2%,-19%,2.6µM*
Nrf2 block,18µM*!,21µM*,-29%,2%,16µM*,0%,8.2µM*,5.2µM*
miR-21 reporter,0%,0%,-1%,-5%,26%,/,17%,?
Mito fusion yeast,7%,/,19%,?,14µM*,/,-2%,-21%
Nrf2 activator,2%,0%,-1%,3%,-1%,/,5%,-5%

41. COc1ccc(CNC(=O)c2c(C)oc3c2C(=O)c2ccccc2C3=O)cc1
42. COc1ccc(C)cc1NC(=O)CN1CCCN(S(=O)(=O)c2ccc(Br)cc2)CC1
43. O=C(CN1CCN(S(=O)(=O)c2ccc(F)cc2)CC1)Nc1ccc(F)cc1F
44. COc1ccc(-c2nc3ccc(NC(=O)COC(C)=O)cc3c(=O)n2Cc2ccccc2)cc1COc1ccc(NC(C)=O)cc1
45. Cc1cccc(Cn2c(=O)n(CCCC(=O)NCc3ccccc3Cl)c(=O)c3ccccc32)c1
46. Cc1ccc(C)c(Cn2c(=O)n(CCCCC(=O)NCc3ccccc3Cl)c(=O)c3ccccc32)c1

assay / entry,41,42,43,44,45,46
A549 viability,4.6µM*,-8%,2%,-6%,-18%,-7%
Nrf2 block,4.1µM*,?,2%,?,10µM*,6%
miR-21 reporter,-5%,5%,-22%,/,21%,-8%
Mito fusion yeast,-8%,14µM*,35µM*,/,/,/
Nrf2 activator,-5%,0%,5%,/,0%,0%

Screening results (PubChem)
